Screens from PubChem.
TDP1 cell CPT: DT40-hTDP1 cell growth loss with CPT; chicken DT40 Tdp1-/-;hTDP1 cells + 20 nM CPT, ATP luminescence, 48 h; Potency, µM (titrated, usually from 46.2 µM), for inactives: at the highest dose activity change, negative = growth inhibition, most hits filed as inhibitors; 12% of 420,000 active; AID 686979; note: potency is the fitted concentration of half-maximal effect; % is set by controls: 0 for no effect and ±100 for the full control effect; nearly all actives have a fitted effect of over 55% in size
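Chicken DT40 Tdp1-/- cells stably complemented with human TDP1 were seeded at 400 cells/well in medium containing 20 nM camptothecin, exposed to pin-transferred compounds, and grown at 37 °C for at least 48 hr. Viability was read as ATP luminescence.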
miR-21 FLuc: raises the signal of a miR-21 reporter | HeLa miR-21 FLuc reporter, luciferase, 48 h | Potency, µM (doses to about 38.3 µM), without a hit: at the top dose reporter change, positive = more light | 340,000 tested, under 10 active | AID 2288; active = well fitted rising curve with a large enough effect; inconclusive = small, poorly fitted or top-dose-only effect; inactive = no such curve, though single readings can be large or run the other way;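 note: % of control where 0% means no effect; miR-21 action dims this reporter so a rising signal means less miR-21 action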
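Luminescence from a firefly luciferase reporter carrying a miR-21 binding site downstream, stably expressed under a CMV promoter in HeLa cells that make miR-21 endogenously, reports miRNA modulation after 48 h compound exposure up to approximately 40uM final.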
TDP1 inh: blocks human tyrosyl-DNA phosphodiesterase 1; Potency, µM (titrated, usually from 130 µM), for inactives: at the highest dose activity change, negative = inhibition, usual class: inhibitors; 0.28% of 350,000 active; Q9NUW8; recombinant TDP1, AlphaScreen DNA substrate cleavage; note: potency is the fitted concentration of half-maximal effect; % is set by controls: 0 for no effect and ±100 for the full control effect; nearly all actives have a fitted effect of over 40% in size
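Recombinant E. coli-expressed Tdp1 (1 nM) preincubated with compound 15 min at RT, then 5'-biotin/3'-phosphotyrosine-FITC DNA substrate (15 nM) added for 5 min. AlphaScreen beads (10 ug/ml) added, 10 min RT; tyrosine-FITC cleavage read as signal loss.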
uPA surface inh: inhibitors of cell surface uPA generation. AID 540303. 0.31% of 330,000 active. Potency, µM (highest dose often 38.3 µM), without a hit: at the top dose activity change, negative = inhibition, most hits filed as inhibitors. cell surface uPA generation assay, qHTS; active = well fitted inhibition curve with a large enough effect; inconclusive = small, poorly fitted or top-dose-only effect; inactive = no such curve, though single readings can be large or run the other way; tested in mouse RAW 264.7 cells; note: potency is the fitted concentration of half-maximal effect; % is set by controls: 0 for no effect and ±100 for the full control effect; nearly all actives have a fitted effect of over 55% in size
DT40 TDP1 no CPT: qHTS for Inhibitors of human tyrosyl-DNA phosphodiesterase 1 (TDP1): qHTS in cells in absence of CPT | DT40 Tdp1-/- hTDP1 cells, no CPT, ATP luminescence, 48 h | Potency, µM (doses to about 46.2 µM), for inactives: top-dose activity change, negative = growth inhibition, usual class: inhibitors | 15% of 420,000 active | AID 686978, 2013; note: potency is the fitted concentration of half-maximal effect; % is set by controls: 0 for no effect and ±100 for the full control effect; nearly all actives have a fitted effect of over 55% in size
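Seeded 400 DT40-hTDP1 cells/well (vehicle DMSO, no 20 nM CPT); pinned compounds; ≥48 hr at 37 °C; CellTiter-Glo luminescence as viability measure.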
An asterisk follows results filed as active; ? = inconclusive; . = no result given; [ ] = dose if it differs, or a comment. Most compounds without a hit are left out; they make up all but 16% or so of the library. Unless noted, calls come from the whole dose curve; as a rule, active = well fitted curve in the direction sought with a large enough effect; inconclusive = small, poorly fitted or top-dose-only effect, or another doubt; inactive = no such curve, though single readings can be large; an effect the other way counts as inactive or inconclusive.

The line under a structure holds: TDP1 cell CPT, miR-21 FLuc, TDP1 inh, uPA surface inh, DT40 TDP1 no CPT
> Cc1cccc(-c2nnn3c2nc(NCc2ccccc2)c2ccccc23)c1
→ ?, -19%, -6%, ., 21µM*
> COc1ccc(CNc2nc3c(-c4cccc(C)c4)nnn3c3ccccc23)cc1
→ ?, 2%, -1%, ., ?
> COc1ccc(CCNc2nc3c(-c4cccc(C(F)(F)F)c4)nnn3c3ccccc23)cc1OC
→ ?, 0%, -1%, ., 16µM*
> COc1ccc(-c2nnn3c2nc(NCCc2ccc(OC)c(OC)c2)c2ccccc23)cc1
→ 8.2µM*, -9%, 6%, ., 9.2µM*
> COc1ccc(CNc2nc3c(-c4cccc(F)c4)nnn3c3ccccc23)cc1
→ ?, -44%, 6%, ., ?
> COc1cccc(OCc2nc3ccccc3c(=O)n2N)c1
→ ?, -44%, 5%, -4%, -12%
> COc1cccc(CCc2nc3ccccc3c(=O)n2N)c1
→ ?, ., ., 5%, 21µM*
> N#Cc1c(N)sc(=S)c2c1CCCCC2
→ ?, -7%, 10µM*, -3%, -18%
> N#Cc1c(N)sc2c1CCCCCC2
→ -8%, -12%, 4%, ., -18%
> COC(=O)c1c(NC(=O)COc2c(C)ccc(C)c2C)sc2c1CCC(C)C2 (stereo not drawn)
→ -8%, 1%, ., ., -24%

Fetched by compound from the entries so far (two):
The line under a structure holds: TDP1 cell CPT, miR-21 FLuc, TDP1 inh, uPA surface inh, DT40 TDP1 no CPT
> Cc1cccc(-c2nnn3c2nc(NCc2ccccc2)c2ccccc23)c1
→ ?, -19%, -6%, ., 21µM*
> COc1ccc(CNc2nc3c(-c4cccc(F)c4)nnn3c3ccccc23)cc1
→ ?, -44%, 6%, ., ?

(list continues)
The line under a structure holds: TDP1 cell CPT, miR-21 FLuc, TDP1 inh, uPA surface inh, DT40 TDP1 no CPT
> COc1cc2c(cc1OC)/C(=C/C(=O)c1ccc(OC)c([N+](=O)[O-])c1)NCC2
→ ?, -16%, ., 3%, 18µM*
> CN1CCN(C(=O)CN2C(=O)COc3ccc(S(=O)(=O)N4CCOCC4)cc32)CC1
→ 7%, 0%, 1%, 0%, 25%
> CC1(C)OC(c2ccccc2)=C/C(=C/C=Nc2ccccc2)O1
→ 23µM*, -5%, 8%, -3%, ?
> CCN(CC(=O)N1CCOCC1)S(=O)(=O)c1ccc2ccccc2c1
→ -1%, 0%, ., 14%, 16%
> Cc1ccccc1NC(=O)Cc1nc(-c2c[nH]c(C(=O)N3CCCC3)c2)cs1
→ 18µM*, ., 6%, 22%, ?
> Cc1nn(-c2ccccc2)c(Cl)c1/C=C(\C#N)C(=O)NC(C)C
→ 1%, 24%, -1%, -20%, ?
> Cc1ccc2[nH]c(=O)c(CN(CC3CCCO3)C(=O)c3ccncc3)cc2c1 (stereo not drawn)
→ 1%, -6%, -2%, 1%, -15%
> CCN(Cc1cc2cc(C)ccc2[nH]c1=O)C(=O)c1cccc(OC)c1
→ ?, 0%, -1%, 2%, ?
> COc1ccccc1NC(=O)N(Cc1ccco1)Cc1cc2c(C)ccc(C)c2[nH]c1=O
→ 1%, 16%, 8%, -5%, -3%
> COc1ccc(C(=O)N(Cc2ccco2)Cc2cc3cc(C)ccc3[nH]c2=O)cc1OC
→ ?, ., ., 3%, 16µM*

Structural class, the entries above with fluorine (two)
The line under a structure holds: TDP1 cell CPT, miR-21 FLuc, TDP1 inh, uPA surface inh, DT40 TDP1 no CPT
> COc1ccc(CCNc2nc3c(-c4cccc(C(F)(F)F)c4)nnn3c3ccccc23)cc1OC
→ ?, 0%, -1%, ., 16µM*
> COc1ccc(CNc2nc3c(-c4cccc(F)c4)nnn3c3ccccc23)cc1
→ ?, -44%, 6%, ., ?

(further entries)
The line under a structure holds: TDP1 cell CPT, miR-21 FLuc, TDP1 inh, uPA surface inh, DT40 TDP1 no CPT
> CCc1ccc2[nH]c(=O)c(CN(Cc3ccc4c(c3)OCO4)C(=O)c3ccco3)cc2c1
→ 23µM*, -2%, -1%, -2%, ?
> COc1ccccc1NC(=O)N(Cc1ccco1)Cc1cc2cccc(C)c2[nH]c1=O
→ 16µM*, 6%, 3%, -3%, 29µM*
> COc1ccc2[nH]c(=O)c(CN(Cc3ccc4c(c3)OCO4)C(C)=O)cc2c1
→ ?, -5%, 5%, -1%, -7%
> Cc1ccc2[nH]c(=O)c(CN(Cc3ccco3)C(=O)c3ccncc3)cc2c1
→ 10µM*, 19%, -4%, -18%, 10µM*
> CSc1nc(Oc2ccc3ccccc3c2)c2sccc2n1
→ ?, 18%, -6%, -8%, ?
> CN1C(=O)CC[C@@H]1c1cccnc1
→ ., ., 10%[21 µM], ., .
> COC(=O)c1ccccc1NC(=S)N(Cc1ccc2c(c1)OCO2)Cc1cc2cc(C)ccc2[nH]c1=O
→ 21µM*, -4%, -1%, 0%, ?
> CCN1CCCC1CN(Cc1cc2ccc(C)cc2[nH]c1=O)C(=S)Nc1ccc(OC)cc1OC (stereo not drawn)
→ ?, -1%, -2%, -2%, ?
> CCN1CCCC1CN(Cc1cc2cc(C)cc(C)c2[nH]c1=O)C(=O)Nc1ccccc1OC (stereo not drawn)
→ 13µM*, -2%, -2%, 0%, 21µM*
> COc1ccccc1NC(=S)N(Cc1ccco1)Cc1cc2cc(C)ccc2[nH]c1=O
→ 9.2µM*, 0%, 2%, -6%, 13µM*
> CC(=O)N[C@@H](CCC(=O)O)C(=O)O
→ 11%, ., 6%, ., -4%
> COc1cccc(OCc2ccc(Cl)cc2)c1C#N
→ ?, -49%, -7%, 8.9µM*, 18µM*
> COc1cccc(CNC(C)(C)CO)c1OCc1ccc(Cl)cc1
→ -20%, -1%, -3%, -5%, ?
> Cc1nnc(NC(=O)c2oc3ccccc3c2C)s1
→ ?, -49%, 1%, -10%, -1%
> COc1ccc2oc(C(=O)Nc3ccccn3)c(C)c2c1
→ ?, -16%, 0%, -14%, -23%
> COc1ccc2oc(C(=O)Nc3nc(C)cs3)c(C)c2c1
→ ?, ., 0%, 10µM*, ?
> O=C(Nc1nc(-c2ccccn2)cs1)c1cc2ccccc2o1
→ ?, 9%, 10%, -13%, 7.3µM*
> Cc1c(C(=O)Nc2nc(-c3ccccn3)cs2)oc2ccccc12
→ 5.2µM*, ., -2%, ?, 3.7µM*
> Cc1cc(-c2csc(NC(=O)c3cc4ccccc4o3)n2)c(C)n1C
→ ?, -26%, 5%, ., ?
> FC(F)Oc1ccc(NC(=S)NCc2ccccc2)cc1
→ -27%, -16%, 0%, 2%, ?

Arranged by length of the SMILES (lowest first): some entries from above.
The line under a structure holds: TDP1 cell CPT, miR-21 FLuc, TDP1 inh, uPA surface inh, DT40 TDP1 no CPT
> COc1ccc2oc(C(=O)Nc3nc(C)cs3)c(C)c2c1
→ ?, ., 0%, 10µM*, ?
> COc1cccc(CNC(C)(C)CO)c1OCc1ccc(Cl)cc1
→ -20%, -1%, -3%, -5%, ?
> Cc1c(C(=O)Nc2nc(-c3ccccn3)cs2)oc2ccccc12
→ 5.2µM*, ., -2%, ?, 3.7µM*

Following part
The line under a structure holds: TDP1 cell CPT, miR-21 FLuc, TDP1 inh, uPA surface inh, DT40 TDP1 no CPT
> Oc1cccc2c(NC(=S)Nc3ccc(OC(F)F)cc3)cccc12
→ -59%, 3%, 1%, 0%, 18µM*
> CCOc1cccc(C(=O)N(Cc2ccc(C(C)C)cc2)C2CCS(=O)(=O)C2)c1 (stereo not drawn)
→ 21µM*, -5%, -2%, ., ?
> COc1ccc(C(=O)N(Cc2ccc(C(C)C)cc2)C2CCS(=O)(=O)C2)cc1 (stereo not drawn)
→ ?, -8%, 1%, ., 15µM*
> CCOc1cccc(C(=O)N(Cc2ccc(CC)cc2)C2CCS(=O)(=O)C2)c1 (stereo not drawn)
→ 18µM*, 18%, -1%, ., ?
> CCCCOc1cccc(C(=O)N(Cc2ccccc2)C2CCS(=O)(=O)C2)c1 (stereo not drawn)
→ 13µM*, 2%, -10%, 15%, 15µM*
> COc1ccc(CN(C(=O)c2cccc(OC)c2)C2CCS(=O)(=O)C2)cc1 (stereo not drawn)
→ 17%, -1%, 7%, -1%, 5%
> CC(C)c1ccccc1NC(=O)CSc1nnc(COc2ccccc2Cl)o1
→ ?, -1%, ., ., ?
> COc1cccc(Cn2cnc3c(NS(=O)(=O)c4ccc(Cl)cc4Cl)c(C)c(C)cc32)c1
→ ?, -2%, 7%, -4%, ?
